In patent US7622441B2, “Sustained release pharmaceutical compounds to prevent abuse of controlled substances” (Shire LLC, priority 2002, dated 2009):
Like-named read-outs stand apart in the source and are kept apart here.

Experiments:
[1] = Pharmacokinetics of narcotic conjugates by oral administration (serum hydrocodone/oxycodone by ELISA); conditions: for Shape of the Curve: rat serum concentration curve vs. parent drug; for Peak Time / % AUC / % Cmax: rat serum; for Peak Time: multiple of parent drug's peak time; for % AUC / % Cmax: vs. equivalent dose of parent drug
[2] = intranasal, serum, buffer PBS
[3] = Stability of narcotic conjugates in water (narcotic release, abuse resistance tests); assay type: physicochemical; conditions: numbers based upon narcotic release

Substance	Shape of the Curve [1]	Peak Time [1]	% AUC [1]	% Cmax [1]	Comments (curve) [2]	Peak Time ([2]; multiple of hydrocodone's peak time)	% AUC ([2]; vs. hydrocodone)	% Cmax ([2]; vs. hydrocodone)	H2O (1 h, 90 C.) [3]	H2O (24 h, RT) [3]
Ala-Pro-Hydrocodone [Ala-Pro-HC]	++Clearance	1X	48%	106%						
Boc-Gly-Gly-Leu-Hydrocodone [Boc-Gly-Gly-Leu-HC]	+Clearance	1X	68%	96%						
Gly-Gly-Leu-Hydrocodone [Gly-Gly-Leu-HC]	+Clearance	1X	82%	126%	Flat curve	6X	77%	62%	16	5
